The test relates to cardiac MIFIs (HUES9-CMs with 10% FBs). The test is described as follows: side-on contractility assay of cardiac MIFIs with drug dosing (twitch force, beat frequency). Format: cell-based, human. As to conditions: epinephrine, second of two values; dose not given. How it is done:
MIFIs were removed from wells using forceps and were transferred to a 35 mm petri dish filled with 37° C. Tyrode's solution (1.192 g HEPES, 0.203 g MgCl2, 0.403 g KCl, 7.889 g NaCl, 0.04 g NaH2PO4, 0.901 g C6H12O6, and 0.265 g CaCl2) per liter of distilled water, pH 7.4). MIFIs were anchored by placing the wide base of the strip into a slit in a PDMS block glued to the bottom of the stimulation dish. The Tyrode's bath was maintained between 30° and 37° C. using a heated stage regulated by an in house Lab VIEW program. Videos of samples were taken using a NikonTM […] DSLR camera mounted on a NikonTM SMZ1500 stereomicroscope. Samples were paced from 2-10 Hz using parallel platinum electrodes placed 2 cm apart and immersed in Tyrode's solution. Samples were stimulated with 40V using a 10 ms square pulse wave. Shorter pulse durations can also be used (e.g., 2 ms, 4 ms, 6 ms, etc.). Carbachol and isoprenaline were mixed to stock concentrations of 5 mM in 1× Tyrode's solution. […] By tracking the change in tissue length of beating MIFIs, we calculated force generated by these tissues using force lookup tables. […] It is possible that this decrease in contractility at Day 10 was a result of remodeling in these tissues around Day 10, something that was reflected in the fluorescence staining. […]

For `CNC[C@H](O)c1ccc(O)c(O)c1` [epinephrine], the “beat frequency relative to initial BPM” value came out at 1.65 ×.

Source of the values: US12371658B2, “Three-dimensional microtissues with integrated mechanical loading” (Carnegie Mellon University, priority 2017, dated 2025).
